{
  "source": "PubChem BioAssay AID1159580",
  "about": "(chemical genetic matrix, 2015)",
  "note": "In all, about 5,500 compounds went through this assay and about 2,000 (36%) were called active. Listed are the inconclusive results; actives and inactives stand elsewhere. Cut-off read from the data, not from the text of the source: active = normalized growth mostly below about 0.91 (no sharp cut-off); inconclusive = no clear call, values can overlap the other calls; inactive = mostly above about 0.92.",
  "data": [
    {"assay": "chemical genetic growth profiling, strain panel (AID 1159580);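 note: tested at 20 µM; growth read once vehicle control cultures reached saturation at 30 °C; 1 = growth at the plate median or of vehicle wells; lower values mean less growth of the strain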", "settings": "S. cerevisiae deletion strains, growth OD, locus YAL040C, strain CLN3, hits give low values", "values": [
      {"compound": "CN(C(=O)Cc1ccc(Cl)c(Cl)c1)[C@@H]1CC[C@]2(CCCO2)C[C@H]1N1CCCC1", "normalized growth": "inconclusive: 0.53"}
    ]}
  ]
}
